Key:
hCA IX = hCA IX (Homo sapiens (Human), UniProt Q16790); details: read-out: Ki (nM) hCA IX; Table 3
hCA I = hCA I (Homo sapiens (Human), UniProt P00915); details: read-out: Ki (nM) hCA I; Table 3

Chains of the proteins cited; added tags and fusions are not shown. Lines headed by an entry give the natural chain unless they say otherwise; changes in a name come on top.
UniProt P00915: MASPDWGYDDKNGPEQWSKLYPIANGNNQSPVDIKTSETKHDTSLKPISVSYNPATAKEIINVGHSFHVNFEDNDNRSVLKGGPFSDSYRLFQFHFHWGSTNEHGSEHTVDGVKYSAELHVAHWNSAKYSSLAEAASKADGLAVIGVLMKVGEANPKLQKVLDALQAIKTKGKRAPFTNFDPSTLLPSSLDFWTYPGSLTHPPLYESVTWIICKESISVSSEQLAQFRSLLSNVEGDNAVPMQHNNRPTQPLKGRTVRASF

NS(=O)(=O)c1ccc(NC(=O)Nc2ccc(Br)cc2F)cc1 [MST-135, 4-(3-(4′-bromo-2′-fluorophenyl)ureido)benzenesulfonamide]
Ki (hCA IX): 6.3 nM

NS(=O)(=O)c1ccc(NC(=O)Nc2cccc(Cl)c2)cc1 [MST-143, 4-(3-(3′-chlorophenyl)ureido)benzenesulfonamide]
Ki (hCA I): 158 nM

Source: patent US9962398B2, “Sulfonamide compounds for inhibition of metastatic tumor growth” (Welichem Biotech Inc., priority 2010, dated 2018)
